One may read the Kd as a measure of binding affinity in units of concentration. Read a high Kd as weaker binding.

Sequences of proteins named here, by UniProt entry; tags and fusion partners are left off. A change or cut given only in a name is not applied to a line headed by its entry.
UniProt Q9BWU1: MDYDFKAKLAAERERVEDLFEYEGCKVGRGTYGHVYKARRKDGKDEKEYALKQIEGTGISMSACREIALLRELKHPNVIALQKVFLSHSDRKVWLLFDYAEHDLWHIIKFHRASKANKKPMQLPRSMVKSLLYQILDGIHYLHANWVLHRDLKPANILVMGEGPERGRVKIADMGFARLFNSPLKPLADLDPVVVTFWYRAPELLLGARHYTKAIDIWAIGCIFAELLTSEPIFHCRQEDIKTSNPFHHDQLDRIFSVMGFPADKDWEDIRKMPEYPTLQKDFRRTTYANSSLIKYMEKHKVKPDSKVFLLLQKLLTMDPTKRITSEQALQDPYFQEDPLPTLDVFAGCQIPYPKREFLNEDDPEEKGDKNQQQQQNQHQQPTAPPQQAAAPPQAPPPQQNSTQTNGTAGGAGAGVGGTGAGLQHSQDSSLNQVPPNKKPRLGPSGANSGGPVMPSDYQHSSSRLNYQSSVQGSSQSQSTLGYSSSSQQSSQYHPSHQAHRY

These results are taken from patent US9321737B2, “CDK8-CDK19 selective inhibitors and their use in anti-metastatic and chemopreventative methods for cancer” (SENEX BIOTECHNOLOGY INC, priority 2012, dated 2016).

This assay has as its target CDK19 (Homo sapiens, UniProt Q9BWU1). Description: Kd determination, CDK19. The note with it: in duplicate. The class given is binding. As to the method:
The selectivity of SNX2-1-165 for CDK8 and CDK19 was tested using the services of KinomeScan, a division of Ambit Biosciences, San Diego, Calif., which measured the activity of a single concentration of the compound (2,000 nM, an order of magnitude higher than Kd) to inhibit ATP pocket binding of >450 kinases. (16) The results of this analysis are presented in FIGS. 6A-B in the form of an evolutionary dendrogram of the kinase family, where kinase inhibition is represented by red circles, the size of which represents the magnitude of the inhibition.

Each structure is given as a SMILES string.

For `CN1CCN(C(=O)c2ccc3cc(CCNc4ncnc5ccc(C#N)cc45)ccc3c2)CC1` [SNX2-1-165], the Kd was 0.08 µM.
